≈ marks a conversion by molar mass, not a printed value.
Columns and labels:
Cytochrome P450 2C19 = Cytochrome P450 2C19 (Homo sapiens, UniProt P33261)
[1] = biological target: Death-associated protein kinase 1 (Homo sapiens) (UniProt P53355); assay: Binding affinity to DAPK1 (unknown origin) assessed as change in melting temperature at 10 uM by SYPRO Orange dye based fluorescence assay
[2] = biological target: Serine/threonine-protein kinase pim-1 (Homo sapiens) (UniProt P11309); assay: Binding affinity to PIM1 (unknown origin) assessed as change in melting temperature at 10 uM by SYPRO Orange dye based fluorescence assay
[3] = biological target: Calcium/calmodulin-dependent protein kinase type 1 (Homo sapiens, UniProt Q14012)
in vivo [4] = details: CD-1, mouse, po, 25 mg/kg
in vivo [5] = details: CD-1, mouse, po, 10 mg/kg
[6] = biological target: Voltage-gated inwardly rectifying potassium channel KCNH2 (Homo sapiens, UniProt Q12809)
in vivo [7] = details: CD-1, mouse, po, 200 mg/kg
[8] = biological target: Phosphatidylinositol 4-phosphate 5-kinase type-1 gamma (Homo sapiens, UniProt O60331)
in vivo [9] = details: CD-1, mouse, iv, 2 mg/kg
in vivo [10] = details: CD-1, mouse, po, 25 mg/kg; remark: listed apart in the source
in vivo [11] = details: CD-1, mouse, po, 50 mg/kg
in vivo [12] = details: CD-1, mouse, po, 50 mg/kg; remark: listed apart in the source
in vivo [13] = details: CD-1, mouse, po, 25 mg/kg; remark: listed apart in the source
in vivo [14] = details: CD-1, mouse, iv, 2 mg/kg; remark: listed apart in the source
[15] = biological target: Tyrosine-protein kinase ABL1 (Homo sapiens) (UniProt P00519); assay: Binding affinity to ABL (unknown origin) assessed as change in melting temperature at 10 uM by SYPRO Orange dye based fluorescence assay
in vivo [16] = details: CD-1, mouse, po, 25 mg/kg; remark: listed apart in the source
in vivo [17] = details: CD-1, mouse, po, 200 mg/kg; remark: listed apart in the source
in vivo [18] = details: CD-1, mouse, po, 100 mg/kg
in vivo [19] = details: Crl:CD Sprague-Dawley, rat, po, 7 mg/kg
in vivo [20] = details: CD-1, mouse, po, 50 mg/kg; remark: listed apart in the source
in vivo [21] = details: CD-1, mouse, po, 200 mg/kg; remark: listed apart in the source
in vivo [22] = details: CD-1, mouse, iv, 2 mg/kg; remark: listed apart in the source
in vivo [23] = details: CD-1, mouse, iv, 2 mg/kg; remark: listed apart in the source
in vivo [24] = details: CD-1, mouse, po, 100 mg/kg; remark: listed apart in the source
[25] = biological target: T1, Dual specificity mitogen-activated protein kinase kinase 5 (Homo sapiens, UniProt Q13163)
T1 sequence (Q13163 whole entry): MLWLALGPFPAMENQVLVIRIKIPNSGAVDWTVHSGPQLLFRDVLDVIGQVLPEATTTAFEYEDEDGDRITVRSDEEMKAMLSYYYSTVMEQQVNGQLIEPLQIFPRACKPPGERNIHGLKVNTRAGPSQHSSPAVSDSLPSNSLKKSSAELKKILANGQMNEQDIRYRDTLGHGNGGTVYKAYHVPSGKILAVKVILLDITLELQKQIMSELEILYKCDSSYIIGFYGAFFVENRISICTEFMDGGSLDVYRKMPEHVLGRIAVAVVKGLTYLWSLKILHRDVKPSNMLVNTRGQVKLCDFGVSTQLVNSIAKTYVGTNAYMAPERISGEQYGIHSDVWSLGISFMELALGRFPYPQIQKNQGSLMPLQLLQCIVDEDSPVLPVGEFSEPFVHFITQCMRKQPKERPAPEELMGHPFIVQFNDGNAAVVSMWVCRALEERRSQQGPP

Amino acid sequences for entries named in this document (tags omitted). A change or cut given only in a name is not applied to a line headed by its entry.
UniProt P33261, whole entry: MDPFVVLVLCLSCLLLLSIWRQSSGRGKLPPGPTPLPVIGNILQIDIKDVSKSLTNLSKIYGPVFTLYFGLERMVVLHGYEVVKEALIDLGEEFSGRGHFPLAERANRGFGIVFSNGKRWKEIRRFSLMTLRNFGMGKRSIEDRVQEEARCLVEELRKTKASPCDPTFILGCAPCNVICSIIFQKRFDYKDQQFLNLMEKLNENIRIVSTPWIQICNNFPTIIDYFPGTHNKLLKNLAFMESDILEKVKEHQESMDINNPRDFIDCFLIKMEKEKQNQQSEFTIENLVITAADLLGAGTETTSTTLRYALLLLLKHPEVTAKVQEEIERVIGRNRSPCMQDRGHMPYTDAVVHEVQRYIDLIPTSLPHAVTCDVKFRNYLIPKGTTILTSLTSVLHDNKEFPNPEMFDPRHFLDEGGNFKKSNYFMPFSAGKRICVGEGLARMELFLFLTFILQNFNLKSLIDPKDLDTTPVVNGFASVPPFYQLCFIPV
UniProt P53355: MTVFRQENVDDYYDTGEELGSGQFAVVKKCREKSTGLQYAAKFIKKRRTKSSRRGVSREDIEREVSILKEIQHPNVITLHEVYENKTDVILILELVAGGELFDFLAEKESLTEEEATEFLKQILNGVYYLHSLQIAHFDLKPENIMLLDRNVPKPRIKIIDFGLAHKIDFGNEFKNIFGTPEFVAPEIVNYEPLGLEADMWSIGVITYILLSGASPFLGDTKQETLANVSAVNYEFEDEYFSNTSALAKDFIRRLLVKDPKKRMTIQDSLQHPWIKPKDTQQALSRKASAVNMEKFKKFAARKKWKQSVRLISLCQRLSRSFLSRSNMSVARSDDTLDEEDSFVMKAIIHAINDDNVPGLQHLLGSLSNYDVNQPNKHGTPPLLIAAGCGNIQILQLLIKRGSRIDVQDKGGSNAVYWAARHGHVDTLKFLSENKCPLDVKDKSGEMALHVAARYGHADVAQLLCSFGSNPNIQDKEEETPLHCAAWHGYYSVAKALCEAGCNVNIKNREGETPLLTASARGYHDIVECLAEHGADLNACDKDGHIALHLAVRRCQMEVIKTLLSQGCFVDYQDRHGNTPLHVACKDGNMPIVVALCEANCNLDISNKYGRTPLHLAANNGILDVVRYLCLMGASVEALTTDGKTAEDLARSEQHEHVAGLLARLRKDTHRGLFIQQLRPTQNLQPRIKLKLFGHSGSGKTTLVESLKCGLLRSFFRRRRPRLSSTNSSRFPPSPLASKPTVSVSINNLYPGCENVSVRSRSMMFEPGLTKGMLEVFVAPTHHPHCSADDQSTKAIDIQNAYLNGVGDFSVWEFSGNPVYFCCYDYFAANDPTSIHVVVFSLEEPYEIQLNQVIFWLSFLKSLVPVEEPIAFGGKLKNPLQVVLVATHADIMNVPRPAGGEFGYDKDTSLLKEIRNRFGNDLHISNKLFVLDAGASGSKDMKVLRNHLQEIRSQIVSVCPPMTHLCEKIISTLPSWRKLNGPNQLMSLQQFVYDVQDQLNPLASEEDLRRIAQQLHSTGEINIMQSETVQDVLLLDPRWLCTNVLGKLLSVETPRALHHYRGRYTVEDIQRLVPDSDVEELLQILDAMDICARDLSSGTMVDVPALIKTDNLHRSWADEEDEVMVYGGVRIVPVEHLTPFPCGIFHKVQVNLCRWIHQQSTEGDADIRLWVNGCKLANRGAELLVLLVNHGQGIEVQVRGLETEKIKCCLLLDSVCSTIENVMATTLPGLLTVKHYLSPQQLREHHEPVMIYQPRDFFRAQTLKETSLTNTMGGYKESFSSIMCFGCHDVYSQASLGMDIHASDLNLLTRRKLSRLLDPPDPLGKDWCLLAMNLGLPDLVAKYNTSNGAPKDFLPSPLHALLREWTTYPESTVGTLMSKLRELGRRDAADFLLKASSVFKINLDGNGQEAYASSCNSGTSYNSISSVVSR
UniProt P11309, whole entry, looked up: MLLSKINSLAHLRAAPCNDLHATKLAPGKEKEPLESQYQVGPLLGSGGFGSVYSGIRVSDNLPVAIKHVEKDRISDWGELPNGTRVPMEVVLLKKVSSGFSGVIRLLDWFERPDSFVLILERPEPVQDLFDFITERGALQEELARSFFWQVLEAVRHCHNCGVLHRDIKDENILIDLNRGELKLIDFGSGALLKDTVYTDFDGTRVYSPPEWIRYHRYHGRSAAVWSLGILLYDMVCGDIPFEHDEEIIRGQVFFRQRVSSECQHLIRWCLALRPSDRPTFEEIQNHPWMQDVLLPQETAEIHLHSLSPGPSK
UniProt Q12809: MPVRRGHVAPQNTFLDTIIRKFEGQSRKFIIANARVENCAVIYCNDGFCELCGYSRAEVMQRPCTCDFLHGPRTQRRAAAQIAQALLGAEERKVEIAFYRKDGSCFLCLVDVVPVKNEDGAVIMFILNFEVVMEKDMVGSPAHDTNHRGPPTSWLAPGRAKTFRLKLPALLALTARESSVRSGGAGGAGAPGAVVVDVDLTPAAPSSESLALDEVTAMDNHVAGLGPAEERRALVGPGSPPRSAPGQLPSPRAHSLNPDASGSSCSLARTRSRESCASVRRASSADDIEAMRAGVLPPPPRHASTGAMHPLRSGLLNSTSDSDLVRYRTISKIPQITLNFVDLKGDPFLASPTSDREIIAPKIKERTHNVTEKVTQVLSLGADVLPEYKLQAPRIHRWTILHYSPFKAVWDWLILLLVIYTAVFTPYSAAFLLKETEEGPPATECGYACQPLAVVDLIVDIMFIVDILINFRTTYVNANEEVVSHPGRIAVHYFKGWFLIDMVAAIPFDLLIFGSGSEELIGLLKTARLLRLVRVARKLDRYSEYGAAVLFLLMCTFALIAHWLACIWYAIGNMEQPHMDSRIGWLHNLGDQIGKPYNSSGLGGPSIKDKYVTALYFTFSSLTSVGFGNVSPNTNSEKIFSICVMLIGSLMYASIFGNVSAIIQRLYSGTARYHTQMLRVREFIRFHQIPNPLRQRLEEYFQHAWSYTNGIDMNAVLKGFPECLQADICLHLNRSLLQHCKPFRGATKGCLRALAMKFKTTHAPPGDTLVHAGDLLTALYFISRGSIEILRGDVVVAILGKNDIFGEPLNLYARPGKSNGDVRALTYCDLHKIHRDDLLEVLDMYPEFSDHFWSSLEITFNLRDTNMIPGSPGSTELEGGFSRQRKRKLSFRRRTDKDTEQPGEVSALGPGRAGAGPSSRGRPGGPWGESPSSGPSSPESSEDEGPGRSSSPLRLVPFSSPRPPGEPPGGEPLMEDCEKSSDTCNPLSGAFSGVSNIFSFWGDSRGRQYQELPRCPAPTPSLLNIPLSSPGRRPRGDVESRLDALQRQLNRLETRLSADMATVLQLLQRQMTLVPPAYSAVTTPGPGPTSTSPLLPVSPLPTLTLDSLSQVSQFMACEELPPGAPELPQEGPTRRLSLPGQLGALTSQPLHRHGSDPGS
UniProt O60331: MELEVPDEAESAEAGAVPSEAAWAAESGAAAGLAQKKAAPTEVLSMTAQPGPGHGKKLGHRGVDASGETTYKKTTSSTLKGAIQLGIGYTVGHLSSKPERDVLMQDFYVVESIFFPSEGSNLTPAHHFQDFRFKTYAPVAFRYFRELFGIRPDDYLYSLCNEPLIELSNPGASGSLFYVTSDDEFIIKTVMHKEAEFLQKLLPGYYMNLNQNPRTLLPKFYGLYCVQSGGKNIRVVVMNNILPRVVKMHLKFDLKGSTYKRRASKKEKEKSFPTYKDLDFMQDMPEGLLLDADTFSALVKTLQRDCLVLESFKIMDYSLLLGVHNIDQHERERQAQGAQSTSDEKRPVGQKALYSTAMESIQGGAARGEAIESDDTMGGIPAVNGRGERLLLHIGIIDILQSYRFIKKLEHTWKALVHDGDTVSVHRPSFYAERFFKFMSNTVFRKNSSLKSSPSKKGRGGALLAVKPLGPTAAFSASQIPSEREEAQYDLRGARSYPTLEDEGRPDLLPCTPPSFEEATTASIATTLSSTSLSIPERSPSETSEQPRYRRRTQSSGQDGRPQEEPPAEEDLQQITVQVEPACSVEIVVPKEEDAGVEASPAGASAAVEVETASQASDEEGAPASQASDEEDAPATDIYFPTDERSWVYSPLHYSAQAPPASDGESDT
UniProt P00519, whole entry: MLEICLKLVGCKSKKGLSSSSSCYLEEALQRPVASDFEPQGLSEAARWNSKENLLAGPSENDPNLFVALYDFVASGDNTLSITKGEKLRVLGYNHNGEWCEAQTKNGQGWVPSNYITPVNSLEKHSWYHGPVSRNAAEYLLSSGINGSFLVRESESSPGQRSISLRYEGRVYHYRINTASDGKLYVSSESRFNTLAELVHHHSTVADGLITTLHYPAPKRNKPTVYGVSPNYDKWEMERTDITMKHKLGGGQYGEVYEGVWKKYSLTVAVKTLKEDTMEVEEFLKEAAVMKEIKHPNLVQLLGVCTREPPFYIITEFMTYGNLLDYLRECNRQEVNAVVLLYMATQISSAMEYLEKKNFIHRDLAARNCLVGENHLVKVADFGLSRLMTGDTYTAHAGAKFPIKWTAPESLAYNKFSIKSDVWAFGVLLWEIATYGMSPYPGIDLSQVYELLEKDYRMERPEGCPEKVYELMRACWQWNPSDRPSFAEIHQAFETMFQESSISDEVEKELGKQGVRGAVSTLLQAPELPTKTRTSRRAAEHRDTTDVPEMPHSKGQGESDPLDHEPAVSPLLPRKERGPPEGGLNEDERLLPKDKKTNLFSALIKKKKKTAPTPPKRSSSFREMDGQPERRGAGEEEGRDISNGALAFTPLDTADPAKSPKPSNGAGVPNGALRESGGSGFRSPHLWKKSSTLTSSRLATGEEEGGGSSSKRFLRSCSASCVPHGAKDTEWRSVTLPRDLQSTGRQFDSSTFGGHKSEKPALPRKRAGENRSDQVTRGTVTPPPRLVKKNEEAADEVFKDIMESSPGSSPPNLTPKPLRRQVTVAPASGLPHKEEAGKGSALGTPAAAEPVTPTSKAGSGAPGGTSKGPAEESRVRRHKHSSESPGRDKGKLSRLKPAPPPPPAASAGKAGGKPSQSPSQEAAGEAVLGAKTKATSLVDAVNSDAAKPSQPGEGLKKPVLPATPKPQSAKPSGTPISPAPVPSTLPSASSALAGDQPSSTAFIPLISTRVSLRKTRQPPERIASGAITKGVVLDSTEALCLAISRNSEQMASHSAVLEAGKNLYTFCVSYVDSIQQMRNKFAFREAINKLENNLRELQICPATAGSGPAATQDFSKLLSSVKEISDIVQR
UniProt P68400, whole entry, looked up: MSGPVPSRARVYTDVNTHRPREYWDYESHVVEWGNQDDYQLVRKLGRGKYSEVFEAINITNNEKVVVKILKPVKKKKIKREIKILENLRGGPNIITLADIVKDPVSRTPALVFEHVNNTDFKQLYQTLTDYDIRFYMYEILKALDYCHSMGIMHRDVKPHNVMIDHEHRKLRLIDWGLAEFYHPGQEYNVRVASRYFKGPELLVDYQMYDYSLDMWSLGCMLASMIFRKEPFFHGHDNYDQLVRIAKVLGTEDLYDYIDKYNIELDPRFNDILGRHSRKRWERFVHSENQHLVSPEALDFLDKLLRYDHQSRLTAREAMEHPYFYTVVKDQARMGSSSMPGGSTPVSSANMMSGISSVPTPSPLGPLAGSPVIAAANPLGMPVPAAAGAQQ
UniProt Q16584: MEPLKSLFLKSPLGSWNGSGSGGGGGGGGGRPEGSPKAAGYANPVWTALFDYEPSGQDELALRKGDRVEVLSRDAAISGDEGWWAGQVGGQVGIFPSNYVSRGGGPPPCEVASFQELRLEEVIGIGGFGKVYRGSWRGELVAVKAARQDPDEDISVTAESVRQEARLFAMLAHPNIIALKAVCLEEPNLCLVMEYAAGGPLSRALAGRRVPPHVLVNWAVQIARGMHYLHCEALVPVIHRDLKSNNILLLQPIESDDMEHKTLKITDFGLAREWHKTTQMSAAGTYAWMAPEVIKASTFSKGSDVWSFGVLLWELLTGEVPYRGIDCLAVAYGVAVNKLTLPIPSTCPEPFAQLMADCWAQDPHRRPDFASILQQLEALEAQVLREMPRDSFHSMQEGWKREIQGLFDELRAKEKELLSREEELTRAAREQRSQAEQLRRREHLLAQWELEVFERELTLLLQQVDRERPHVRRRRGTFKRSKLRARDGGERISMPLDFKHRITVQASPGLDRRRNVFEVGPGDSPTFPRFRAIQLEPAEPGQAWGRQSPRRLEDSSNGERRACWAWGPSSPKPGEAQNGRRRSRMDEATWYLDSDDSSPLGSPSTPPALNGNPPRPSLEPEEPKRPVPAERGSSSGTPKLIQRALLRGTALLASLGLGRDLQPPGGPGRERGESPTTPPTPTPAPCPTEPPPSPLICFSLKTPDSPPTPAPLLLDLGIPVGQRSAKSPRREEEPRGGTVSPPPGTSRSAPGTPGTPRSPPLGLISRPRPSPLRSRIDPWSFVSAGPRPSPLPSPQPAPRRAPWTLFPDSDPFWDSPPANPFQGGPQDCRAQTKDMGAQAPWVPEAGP

in vivo [26] = details: CD-1, mouse, po, 100 mg/kg; remark: listed apart in the source
in vivo [27] = details: CD-1, mouse, po, 10 mg/kg; remark: listed apart in the source
in vivo [28] = details: Crl:CD Sprague-Dawley, rat, po, 7 mg/kg; remark: listed apart in the source
in vivo [29] = details: CD-1, mouse, iv, 2 mg/kg; remark: listed apart in the source
[30] = biological target: Casein kinase II subunit alpha (Homo sapiens) (UniProt P68400); assay: Binding affinity to CK2a (unknown origin) assessed as change in melting temperature at 10 uM by SYPRO Orange dye based fluorescence assay
in vivo [31] = details: CD-1, mouse, po, 10 mg/kg; remark: listed apart in the source
in vivo [32] = details: CD-1, mouse, po, 10 mg/kg; remark: listed apart in the source
in vivo [33] = details: CD-1, mouse, po, 200 mg/kg; remark: listed apart in the source
in vivo [34] = details: Crl:CD Sprague-Dawley, rat, po, 7 mg/kg; remark: listed apart in the source
Cytochrome P450 2C9 = Cytochrome P450 2C9 (Homo sapiens, UniProt P11712)
[35] = biological target: Mitogen-activated protein kinase kinase kinase 11 (Homo sapiens, UniProt Q16584)
in vivo [36] = details: Crl:CD Sprague-Dawley, rat, po, 7 mg/kg; remark: listed apart in the source
[37] = biological target: Tyrosine-protein kinase SYK (Homo sapiens, UniProt P43405); details: 10 uM

Q: With `CC(C)(C#N)c1cc(Nc2nc(N3CCC[C@H](N)C3)ncc2C(N)=O)cc(C(C)(C)C#N)c1` as the molecule, how does the IC50 (Cytochrome P450 2C19) read?
A: Its IC50 is 1 µM.

Q: What about the ΔTm [1] of the same molecule?
A: The ΔTm was 3.46 °C.

Q: And the ΔTm [2]?
A: Its ΔTm is 0.81 °C.

Q: What about the IC50 [3] of the same molecule?
A: Its IC50 is 0.002 µM.

Q: And the half-life (in vivo [4])?
A: Its half-life is 1.7 h.

Q: What about the bioavailability (in vivo [5]) of the same molecule?
A: Its bioavailability is 41%.

Q: And the IC50 [6]?
A: The IC50 was 7.1 µM.

Q: What about the AUC(0-inf) (in vivo [7]) of the same molecule?
A: Its AUC(0-inf) is 17.5 µg·h/mL.

Q: What about the IC50 [8] of the same molecule?
A: Its IC50 is 7.12 µM.

Q: What about the clearance (in vivo [9]) of the same molecule?
A: Its clearance is 5.28 L/h/kg.

Q: And the Cmax (in vivo [10])?
A: Its Cmax is 0.453 µg/mL.

Q: What about the Cmax (in vivo [11]) of the same molecule?
A: The Cmax was 1.29 µg/mL.

Q: And the AUC(0-inf) (in vivo [12])?
A: Its AUC(0-inf) is 8.5 µg·h/mL.

Q: And the bioavailability (in vivo [13])?
A: Its bioavailability is 37%.

Q: And the half-life (in vivo [14])?
A: Its half-life is 2.3 h.

Q: What about the ΔTm [15] of the same molecule?
A: Its ΔTm is 0.27 °C.

Q: And the solubility (physchem)?
A: Its solubility is 52 µM (≈ 23.2 µg/mL).

Q: What about the AUC(0-inf) (in vivo [16]) of the same molecule?
A: The AUC(0-inf) was 1.78 µg·h/mL.

Q: And the bioavailability (in vivo [17])?
A: Its bioavailability is 45%.

Q: What about the bioavailability (in vivo [18]) of the same molecule?
A: Its bioavailability is 94%.

Q: What about the AUC(0-inf) (in vivo [19]) of the same molecule?
A: The AUC(0-inf) was 0.684 µg·h/mL.

Q: What about the bioavailability (in vivo [20]) of the same molecule?
A: Its bioavailability is 88%.

Q: And the Cmax (in vivo [21])?
A: The Cmax was 3.06 µg/mL.

Q: And the Cmax (in vivo [22])?
A: Its Cmax is 0.747 µg/mL.

Q: And the Vd (in vivo [23])?
A: Its Vd is 4.9 L/kg.

Q: What about the Cmax (in vivo [24]) of the same molecule?
A: The Cmax was 2.22 µg/mL.

Q: And the IC50 [25]?
A: The IC50 was 7.68 µM.

Q: And the AUC(0-inf) (in vivo [26])?
A: Its AUC(0-inf) is 18.3 µg·h/mL.

Q: And the half-life (in vivo [27])?
A: Its half-life is 1.2 h.

Q: What about the bioavailability (in vivo [28]) of the same molecule?
A: Its bioavailability is 73%.

Q: What about the AUC(0-inf) (in vivo [29]) of the same molecule?
A: Its AUC(0-inf) is 0.387 µg·h/mL.

Q: And the ΔTm [30]?
A: The ΔTm was 0.56 °C.

Q: And the Cmax (in vivo [31])?
A: Its Cmax is 0.196 µg/mL.

Q: And the AUC(0-inf) (in vivo [32])?
A: Its AUC(0-inf) is 0.79 µg·h/mL.

Q: What about the half-life (in vivo [33]) of the same molecule?
A: The half-life was 4.7 h.

Q: What about the Cmax (in vivo [34]) of the same molecule?
A: The Cmax was 0.136 µg/mL.

Q: And the IC50 (Cytochrome P450 2C9)?
A: The IC50 was 6 µM.

Q: What about the IC50 [35] of the same molecule?
A: The IC50 was 7.86 µM.

Q: And the half-life (in vivo [36])?
A: Its half-life is 3.3 h.

Q: Which ΔTm [1] does the source give for `NC(=O)c1cnc(N2CCC[C@H](N)C2)nc1Nc1cc(C(F)(F)F)cc(C(F)(F)F)c1` here?
A: The ΔTm was 6.07 °C.

Q: What about the ΔTm [2] of the same molecule?
A: The ΔTm was 3.98 °C.

Q: And the ΔTm [37]?
A: The ΔTm was 4.13 °C.

Q: What about the ΔTm [15] of the same molecule?
A: Its ΔTm is 3.88 °C.

Q: And the ΔTm [30]?
A: The ΔTm was 5.89 °C.

Q: Which ΔTm [1] does the source give for `CC(C)c1cc(Nc2nc(N3CCC[C@H](N)C3)ncc2C(N)=O)cc(C(C)C)c1` here?
A: The ΔTm was 4.65 °C.

Q: What about the ΔTm [15] of the same molecule?
A: The ΔTm was 5.95 °C.

Q: And the ΔTm [30]?
A: The ΔTm was 4.05 °C.
